This note sets out measurements from US20160016995.

The data set deals with GFP-pdt#5 (Example 1) [GFP: P42212].

B1: mf-Lon fused to the E. coli ssrA tag variant ec-AAV (protein)
chain: MSKKIKLPIFQIRGSFIVPGIKENLEVGRKNTLASVNYAIKNSNNQMIAIPQIDASVEKPEFSDLHEFGILIDFEVIKEWKDNSLTISTNPIQRCKVISFFENEDQVPYAEVELIESINDFSDEELKELIEKISDAIKTKASLVTKQIKQLISGESDDLSLAFDSIMFKLAPSKILTNPEYITSPSLKTRWSIIEKIIFAEDGIITRNAESIDAARQKNEIEQELNHKLKEKMDKQQKEYYLREKMRIIKDELEDEDDSDDSSLEKYKERLAKEPFPEEVKRKIMASIKRVEALQSGTPEWNTEKNYIDWMMSIPWWEETEDLTDLKYAKKILDKHHYGMKKVKERIIEYLAVKTKTKSLKAPIITLVGPPGVGKTSLAKSIAEAVGKNFVKVSLGGVKDESEIRGHRKTYVGSMPGRIIQTMKRAKVKNPLFLLDEIDKMASDHRGDPASAMLEVLDPEQNKEFSDHYIEEPYDLSQVMFIATANYPEDIPEALYDRMEIINLSSYTEIEKVKIAQDYLVPKAIEQHELTSEEISFTEGAINEIIKYYTREAGVRQLERHINSIIRKYIVKNLNGEMDKIVIDEKQVNDLLGKRIFDHTEKQEESQIGVVTGLAYTQFGGDILPIEVSLYPGKGNLILTGKLGEVMKESATIALTYVKSNFEKFGVDKKVFEENDIHVHVPEGAVPKDGPSAGITITTALISALSDKPVSKEIGMTGEITLRGNVLPIGGLREKSISASRSGLKTIIIPKKNERDLDEIPDEVKAKLKIIPAEKYEEVFAIVFKTK
As to B1, the “GFP-pdt#5 remaining at maximal mf-Lon expression” value is reported as “degrade GFP-pdt#5 to 38% of its initial levels at maximal expression”.

B2: mf-Lon fused to the E. coli ssrA tag variant ec-ASV (protein)
chain: MSKKIKLPIFQIRGSFIVPGIKENLEVGRKNTLASVNYAIKNSNNQMIAIPQIDASVEKPEFSDLHEFGILIDFEVIKEWKDNSLTISTNPIQRCKVISFFENEDQVPYAEVELIESINDFSDEELKELIEKISDAIKTKASLVTKQIKQLISGESDDLSLAFDSIMFKLAPSKILTNPEYITSPSLKTRWSIIEKIIFAEDGIITRNAESIDAARQKNEIEQELNHKLKEKMDKQQKEYYLREKMRIIKDELEDEDDSDDSSLEKYKERLAKEPFPEEVKRKIMASIKRVEALQSGTPEWNTEKNYIDWMMSIPWWEETEDLTDLKYAKKILDKHHYGMKKVKERIIEYLAVKTKTKSLKAPIITLVGPPGVGKTSLAKSIAEAVGKNFVKVSLGGVKDESEIRGHRKTYVGSMPGRIIQTMKRAKVKNPLFLLDEIDKMASDHRGDPASAMLEVLDPEQNKEFSDHYIEEPYDLSQVMFIATANYPEDIPEALYDRMEIINLSSYTEIEKVKIAQDYLVPKAIEQHELTSEEISFTEGAINEIIKYYTREAGVRQLERHINSIIRKYIVKNLNGEMDKIVIDEKQVNDLLGKRIFDHTEKQEESQIGVVTGLAYTQFGGDILPIEVSLYPGKGNLILTGKLGEVMKESATIALTYVKSNFEKFGVDKKVFEENDIHVHVPEGAVPKDGPSAGITITTALISALSDKPVSKEIGMTGEITLRGNVLPIGGLREKSISASRSGLKTIIIPKKNERDLDEIPDEVKAKLKIIPAEKYEEVFAIVFKTK
Regarding B2, the “GFP-pdt#3 (Example 2 name) degradation across ATc levels” value is recorded as “the weaker ec-ASV variant had only a small effect on mf-Lon protein levels” and the “aTc concentration needed for maximal GFP-pdt#5 degradation” value was “reduced aTc concentration required to induce maximal GFP-pdt#5 degradation”.
